Literature values in US20080045610A1, “Methods for regulating neurotransmitter systems by inducing counteradaptations” (priority 2004, published 2008).

The chains behind the UniProt entries cited, without tags or fusion partners. Where a name states a change or a piece, a line headed by the entry shows the natural chain unless it says otherwise.
UniProt P41145: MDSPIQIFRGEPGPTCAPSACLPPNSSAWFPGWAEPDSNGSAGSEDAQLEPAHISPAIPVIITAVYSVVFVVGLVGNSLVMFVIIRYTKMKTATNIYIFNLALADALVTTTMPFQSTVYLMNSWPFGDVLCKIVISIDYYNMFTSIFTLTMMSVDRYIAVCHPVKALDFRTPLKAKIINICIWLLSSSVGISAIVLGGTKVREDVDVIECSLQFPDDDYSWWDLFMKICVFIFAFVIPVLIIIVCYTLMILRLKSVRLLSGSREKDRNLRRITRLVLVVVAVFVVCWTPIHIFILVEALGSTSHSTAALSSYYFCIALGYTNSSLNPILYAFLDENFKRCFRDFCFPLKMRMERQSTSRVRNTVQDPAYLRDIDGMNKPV

Molecular target: kappa receptor (Homo sapiens, UniProt P41145)

For `CN(C(=O)Cc1cccc2occc12)[C@H]1CC[C@@]2(CCCO2)C[C@@H]1N1CCCC1`, the “oral dose with pharmaceutical activity” value is given as 1 to 10 mg/kg.
